From patent US5453426A, “Sulfur-containing xanthine derivatives as adenosine antagonists” (priority 1994, dated 1995) come the findings set out here.

Amino acid sequences for entries named in this document (tags omitted).
UniProt P25099, whole entry: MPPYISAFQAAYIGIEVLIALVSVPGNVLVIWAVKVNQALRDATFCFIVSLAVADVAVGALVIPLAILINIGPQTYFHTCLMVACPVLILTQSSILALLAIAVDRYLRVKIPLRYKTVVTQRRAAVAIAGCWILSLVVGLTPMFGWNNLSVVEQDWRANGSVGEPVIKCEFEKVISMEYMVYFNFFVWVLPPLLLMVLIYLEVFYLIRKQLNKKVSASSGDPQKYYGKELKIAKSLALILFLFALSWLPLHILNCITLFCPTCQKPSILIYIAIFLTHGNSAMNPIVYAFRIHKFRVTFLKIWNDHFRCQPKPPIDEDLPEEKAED

This test has as its target T1, A1 adenosine receptors (Rattus norvegicus, UniProt P25099).
T1 construct: A1 adenosine receptors in rat cerebral cortical membranes; from tissue; host or cells: rat cerebral cortex membranes
As to the kind of experiment: Inhibition of binding of [3H]N6-phenylisopropyladenosine to A1 adenosine receptors in rat cerebral cortical membranes. The following applies: ratio of A2 (rat striatum) to A1 (rat cortex) Ki.

Each structure is given as a SMILES string.

As to `CCCn1c(=O)c2[nH]c(-c3ccc(OCC(=O)N(C)CCN(C)C)cc3)nc2n(CCC)c1=S` [Compound 37, (8-[2-Dimethylaminoethyl[N-methylamino[carbonyl[methyl[oxyphenyl]]]]]-2-thio-1,3-dipropylxanthine)], the “Ki (A2)/Ki (A1)” value came to 9.5.
